Key:
Experiment in all cases: cell-based or functional assay
[1] = molecular target: FLAGELLIN SENSING 2 (FLS2) of soybean (soybean)
[2] = molecular target: FLS receptor at the plant cell surface (plant of Table 32 not stated)
[3] = molecular target: FLAGELLIN SENSING 2 (FLS2) of corn (corn)
[4] = molecular target: Flagellin-sensing 2 (FLS2) of tomato (tomato)

Binder	ROS assay with soybean leaf tissue, RLU, 10 nM [1] [RLU]	ROS activity (total RLU, % of Bt.4Q7Flg22 at 25 nM), peptide at 0.25 nM [2] [%]	ROS activity (total RLU, % of Bt.4Q7Flg22 at 25 nM), peptide at 0.5 nM [2] [%]	ROS activity (total RLU, % of Bt.4Q7Flg22 at 25 nM), peptide at 1 nM [2] [%]	ROS activity (total RLU, % of Bt.4Q7Flg22 at 25 nM), peptide at 5 nM [2] [%]	ROS activity (total RLU, % of Bt.4Q7Flg22 at 25 nM), peptide at 10 nM [2] [%]	ROS activity (total RLU, % of Bt.4Q7Flg22 at 25 nM), peptide at 25 nM [2] [%]	ROS activity (total RLU, % of Bt.4Q7Flg22 at 25 nM), peptide at 100 nM [2] [%]	ROS activity (total RLU, % of Bt.4Q7Flg22 at 25 nM), peptide at 1000 nM [2] [%]	ROS activity assay with corn stalk tissue, RLU, 10 nM [3] [RLU]	ROS activity in tomato leaf tissue, Average RLU value, 5 nM Flg polypeptide [4] [RLU]
DRLSSGKRINSAKDDAAGLAIA [Bt.4Q7Flg22-Syn01]	62000	23.6	55	57	113	116	118	121	121	17700	
DRLSSGKRINSASDDAAGLAIA [Bt.4Q7Flg22]	10800	8.12	14.9	23.9	57	76.8	100	114	128	6030	33100
RINSAKDDAAGLAIA [Bt.4Q7Syn01Flg15]	43000									14100	
ERLSSGLRINSAKDDAAGQAIA [Ec.Flg22]											426000
QRLSSGKRINSASDDAAGLAIA [Bt.4Q7Flg22-Syn03]		14.9	14.9	41.5	57	85.7	111	162	97.7		

Source: patent publication US20200170258A1 (SPOGEN BIOTECH, published 2020)
